Binding of CDR-mutated scFvs to a peptide of the spike HR2 region

Reference: Engelhart et al. 2022, doi:10.1038/s41597-022-01779-4. File: FLAb, binding data.

All variants were tested on one target, the spike HR2 peptide PDVDLGDISGINAS (SARS-CoV-2).

Ab-14 is the parent antibody, in scFv form: VH, then a (GGGGS)3 linker, then VL. The light chain is unchanged in all variants.
VH: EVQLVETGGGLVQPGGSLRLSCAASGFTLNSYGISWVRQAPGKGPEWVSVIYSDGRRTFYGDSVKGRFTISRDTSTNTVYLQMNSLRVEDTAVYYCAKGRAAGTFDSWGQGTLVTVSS
VL: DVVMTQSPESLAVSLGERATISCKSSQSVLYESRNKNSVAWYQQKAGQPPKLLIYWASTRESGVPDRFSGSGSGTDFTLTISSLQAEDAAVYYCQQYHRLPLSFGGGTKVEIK

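The starting antibody came from a phage panning campaign against this peptide. Variants in AAYL49 differ from the parent at up to three CDR positions; double and triple changes were sampled at random. AlphaSeq pools MATa yeast showing the antibodies with MATalpha yeast showing the peptide. Pairs that bind mate more often; barcode pairs of the diploids are counted by sequencing. The ratio of observed to expected reads was calibrated, replicate by replicate, on BCL2-family standards whose Kd was known from biolayer interferometry. The assay was run in three technical replicates.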

Changes read parent residue, position, new residue, counted from the first residue of the VH shown. Affinities are written as log10 Kd with Kd in nM; a lower number is a better binder. A mean of the replicates is given; it leaves out those without a signal. Where no diploid with the target was found in any replicate, the entry reads "no signal": below detection, most likely a poor binder, though not proof of it. Background: pairings of library AAYL49 with three empty control strains gave a value in 15% of cases (median 4.06, 5th percentile 2.83). Values in that range, when seen in few replicates, are hard to tell from nonspecific mating. Parent in this assay: reference entry 0.65, copy in this library 4.11 (one replicate of three).

mean, log10 nM	detected	changes
2.91	2/3	R56A F59C A102Y
4.57	2/3	V50D V64K
no signal	0/3	G55H D62Q T104N
5.84	1/3	S35W S107W
no signal	0/3	A101E T104Q S107F
no signal	0/3	G26E G103A F105P
no signal	0/3	R56E D62M S107M
no signal	0/3	I34K Y60A F105M
3.38	1/3	S35W V50P Y60H
3.07	2/3	S31C R56L T58V
3.28	2/3	F27L I34T
no signal	0/3	G55H R56P F59W
3.92	2/3	N30I V50K D54W
no signal	0/3	R57I A102I
3.67	1/3	F27N K65P F105I
3.44	1/3	S53I A102E F105S
4.18	1/3	G26T G99K F105Y
5.27	3/3	S31P Y32P
no signal	0/3	G55N T104Q
5.00	2/3	I51W Y52P R57I
no signal	0/3	N30Y R56Q D106E
no signal	0/3	G26R G99I A101K
no signal	0/3	G26S S53E D54L
1.35	3/3	G99D A101S
3.36	1/3	F27R L29M S107R
no signal	0/3	T28S Y52V D106M
no signal	0/3	L29R Y52D S53R
3.79	1/3	Y52P G55Q F59G
3.38	2/3	R56M T58Q K65T
no signal	0/3	G26W Y52I F59W
no signal	0/3	L29W R100Y A102F
2.56	2/3	Y52H A101K D106M
4.67	1/3	L29S S31Y F59C
2.00	3/3	V50I F59V
no signal	0/3	F27G L29R Y52I
no signal	0/3	V50F R56I
4.81	2/3	N30F G33N
4.49	2/3	F27Q T28Y L29E
4.19	1/3	G33S F59H G99Q
3.78	1/3	V50D Y52N T58F
no signal	0/3	Y32C G55R
no signal	0/3	S53N T104V F105W
no signal	0/3	Y32A R56P V64R
no signal	0/3	G26N F27E I51K
no signal	0/3	R56H G61D F105H
no signal	0/3	S31W Y32P G99L
3.94	1/3	F27M I34W F105E
no signal	0/3	S35W Y60P S63I
no signal	0/3	I34N G99D
4.57	3/3	G33L K65V G103W
no signal	0/3	Y32N Y60H F105Q
no signal	0/3	Y32W G61W
2.92	1/3	G33L S53F S63P
no signal	0/3	I34W R56E G99S
4.33	2/3	Y32R G55R V64T
3.43	1/3	S35V Y52C R100E
4.09	2/3	G61F S63M A101Y
3.43	1/3	G33N F59L R100S
no signal	0/3	I51V S53W R56M
5.41	3/3	L29R Y32W S35K
no signal	0/3	F27P R57S G103L
no signal	0/3	Y32G D54I T58N
no signal	0/3	Y60C S107Y
3.03	1/3	G33S K65C S107G
no signal	0/3	D62T V64Y D106W
no signal	0/3	L29K D54L F59N
no signal	0/3	N30H F59H Y60W
5.46	2/3	V50T Y52S G55S
2.46	1/3	Y52H R57G K65H
no signal	0/3	V50F A101Y
3.39	2/3	F27S S63F A101W
5.39	2/3	Y52E F59G S63C
no signal	0/3	G26Q T58N F59N
5.70	2/3	Y32T S63Y
no signal	0/3	N30P V64K
2.95	1/3	G33H I34W G99T

The last 13 entries again:

| changes | mean, log10 nM | detected |
|---|---|---|
| G33S K65C S107G | 3.03 | 1/3 |
| D62T V64Y D106W | no signal | 0/3 |
| L29K D54L F59N | no signal | 0/3 |
| N30H F59H Y60W | no signal | 0/3 |
| V50T Y52S G55S | 5.46 | 2/3 |
| Y52H R57G K65H | 2.46 | 1/3 |
| V50F A101Y | no signal | 0/3 |
| F27S S63F A101W | 3.39 | 2/3 |
| Y52E F59G S63C | 5.39 | 2/3 |
| G26Q T58N F59N | no signal | 0/3 |
| Y32T S63Y | 5.70 | 2/3 |
| N30P V64K | no signal | 0/3 |
| G33H I34W G99T | 2.95 | 1/3 |